Results from patent publication US10463690B2, “Method and compositions for treating cancerous tumors” (priority 2016, dated 2019).

Format: in vivo, Mice (SK1IPYMT 4913×SK1FVB)
Experimental: Part 2—Upon completion of Part 1, Methylene blue (MB) was injected into the same mice that were injected with INtume in Part 1. The purpose was to see how and where the test product spread throughout the body. Mice were euthanized so that internal cavity could be examined. Organs were cut in half for inspection of the extent of saturation.

CN(C)c1ccc2nc3ccc(=[N+](C)C)cc-3sc2c1 [methylene blue, Methylene blue]
distribution of dye after injection into spleen: The entire spleen got saturated with dye but none of the other organs did
